Yeast mating assay B: variants of the scFv Ab-14

Reference: Li et al. 2023, doi:10.1038/s41467-023-39022-2. File: FLAb, binding data.

The target is the same throughout: PDVDLGDISGINAS, from the HR2 region of SARS-CoV-2 spike.

Parent scFv Ab-14: VH joined to VL by a (GGGGS)3 linker. Changes lie in the heavy chain CDRs alone.
VH: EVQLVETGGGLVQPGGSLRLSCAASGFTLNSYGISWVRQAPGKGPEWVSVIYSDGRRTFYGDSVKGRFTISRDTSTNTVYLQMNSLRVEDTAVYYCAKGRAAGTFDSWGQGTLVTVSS
VL: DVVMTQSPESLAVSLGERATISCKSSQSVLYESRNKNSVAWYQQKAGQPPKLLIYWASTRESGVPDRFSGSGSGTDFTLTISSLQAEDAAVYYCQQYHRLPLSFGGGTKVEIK

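The starting antibody came from a phage panning campaign against this peptide. The variants were designed computationally from a first round of random CDR variants and then made and measured. Their group label is 14H_En_Gen (En: ensemble of fine-tuned language models; Gen: genetic algorithm). AlphaSeq pools MATa yeast showing the antibodies with MATalpha yeast showing the peptide. Pairs that bind mate more often; barcode pairs of the diploids are counted by sequencing. A regression on co-assayed BCL2-family reference pairs converts the normalised counts of each replicate to an apparent Kd. The assay was run in six technical replicates.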

Each variant's VH is given in full.
Scale: log10 of Kd in nM, estimated from mating counts; low values are strong binders.
A mean of the replicates is given; it leaves out those without a signal.
An entry "ND" has no value in the source: the pair was not observed among the diploids in that replicate. This suggests poor binding but is not conclusive.

For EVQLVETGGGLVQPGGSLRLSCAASGFDLNEYGISWVRQAPGKGPEWVSVIYADGSRTAYADKVKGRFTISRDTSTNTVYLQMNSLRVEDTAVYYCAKGEVAGTFDVWGQGTLVTVSS, the assay gave 0.35, 1.32, 0.07, 0.05, 0.58, 0.42 (mean 0.46; controls 0 of 18).
For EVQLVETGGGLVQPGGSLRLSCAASGFDLNEYGISWVRQAPGKGPEWVSVIYADGVRTAYADSVKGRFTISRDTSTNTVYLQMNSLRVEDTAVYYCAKGNQAGTFDTWGQGTLVTVSS, the assay gave 0.39, -0.06, -0.58, -0.38, -0.20, 0.08 (mean -0.12; controls 0 of 18).
For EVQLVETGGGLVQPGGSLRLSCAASGFDLDEYGISWVRQAPGKGPEWVSVIYADGQRTSYADSVKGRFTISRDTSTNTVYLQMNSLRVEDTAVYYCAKGENAGTFDVWGQGTLVTVSS, the assay gave -1.06, -1.40, -1.20, -1.30, -1.12, -1.05 (mean -1.19; controls 0 of 18).
For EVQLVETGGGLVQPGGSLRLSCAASGFDLDEYGISWVRQAPGKGPEWVSVIYADGRRTAYADSVKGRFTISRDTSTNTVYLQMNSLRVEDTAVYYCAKGENAGTFDVWGQGTLVTVSS, the assay gave -0.49, -0.13, -0.50, -0.75, -0.39, -0.49 (mean -0.46; controls 1 of 18).
For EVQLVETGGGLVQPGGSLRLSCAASGFDLNEYGISWVRQAPGKGPEWVSVIYADGRRTAYADNVKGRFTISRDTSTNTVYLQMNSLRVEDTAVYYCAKGQVAGTFDVWGQGTLVTVSS, the assay gave -0.35, -0.48, -0.57, -0.64, -0.43, 0.01 (mean -0.41; controls 0 of 18).
For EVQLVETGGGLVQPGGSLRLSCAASGFDLNEYGISWVRQAPGKGPEWVSVIYADGVRTAYIDSVKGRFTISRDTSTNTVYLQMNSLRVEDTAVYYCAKGENAGTFDIWGQGTLVTVSS, the assay gave -0.08, -0.41, -0.77, -0.60, -0.78, -0.53 (mean -0.53; controls 0 of 18).
For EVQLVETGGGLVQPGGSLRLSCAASGFDLNEYGISWVRQAPGKGPEWVSVIYADGMRTAYADSVKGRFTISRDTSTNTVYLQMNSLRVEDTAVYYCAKGNVAGTFDLWGQGTLVTVSS, the assay gave -0.14, -0.27, -0.22, -0.40, -0.08, 0.00 (mean -0.19; controls 3 of 18).
For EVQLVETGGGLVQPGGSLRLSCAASGFDLDEYGISWVRQAPGKGPEWVSVIYADGMRTAYADSVKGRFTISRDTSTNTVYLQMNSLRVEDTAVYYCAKGGVAGTFDVWGQGTLVTVSS, the assay gave 1.00, -0.46, -0.20, -0.18, -0.54, -0.63 (mean -0.17; controls 0 of 18).
For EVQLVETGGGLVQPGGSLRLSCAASGFDLNEYGISWVRQAPGKGPEWVSVIYADGMRTAYADDVKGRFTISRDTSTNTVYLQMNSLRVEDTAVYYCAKGANAGTFDMWGQGTLVTVSS, the assay gave -0.30, -0.61, -0.98, -0.47, 0.31, -0.27 (mean -0.39; controls 0 of 18).
For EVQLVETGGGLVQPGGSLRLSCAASGFDLNEYGISWVRQAPGKGPEWVSVIYADGMRTYYADSVKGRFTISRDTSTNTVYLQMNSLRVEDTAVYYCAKGTNAGTFDMWGQGTLVTVSS, the assay gave -0.56, -0.84, -0.59, -1.05, -0.66, -0.66 (mean -0.73; controls 0 of 18).
For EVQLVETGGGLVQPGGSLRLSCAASGFDLNEYGISWVRQAPGKGPEWVSVIYADGKRTAYADNVKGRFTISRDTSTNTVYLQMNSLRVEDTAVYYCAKGQNAGTFDVWGQGTLVTVSS, the assay gave 0.16, -0.18, -0.48, -0.06, 0.04, -0.01 (mean -0.09; controls 0 of 18).
For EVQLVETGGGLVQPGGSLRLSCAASGFDLNEYGISWVRQAPGKGPEWVSVIYADGMRTAYADKVKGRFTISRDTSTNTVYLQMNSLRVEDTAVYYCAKGNNAGTFDMWGQGTLVTVSS, the assay gave -0.22, -0.04, -0.36, -0.04, -0.08, 0.04 (mean -0.12; controls 0 of 18).
For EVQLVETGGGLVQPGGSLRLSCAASGFDLNEYGISWVRQAPGKGPEWVSVIYADGMRSVYADSVKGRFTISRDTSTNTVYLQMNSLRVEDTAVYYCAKGENAGTFDVWGQGTLVTVSS, the assay gave -0.35, -0.53, 0.62, -0.52, -0.12, -0.28 (mean -0.20; controls 0 of 18).
For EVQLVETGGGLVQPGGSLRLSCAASGFDLNEYGISWVRQAPGKGPEWVSVIYADGMRTSYADSVKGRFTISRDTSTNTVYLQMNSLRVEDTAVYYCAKGNTAGTFDIWGQGTLVTVSS, the assay gave -0.40, -0.71, -1.06, -0.80, -0.53, -0.33 (mean -0.64; controls 0 of 18).
For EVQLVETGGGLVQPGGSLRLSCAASGFDLDEYGISWVRQAPGKGPEWVSVIYADGMRTAYADTVKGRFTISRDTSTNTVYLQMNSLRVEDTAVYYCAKGENAGTFDVWGQGTLVTVSS, the assay gave -0.86, 0.27, -0.08, -0.97, -1.26, -0.01 (mean -0.48; controls 0 of 18).
For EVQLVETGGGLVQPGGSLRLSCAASGFDLDEYGISWVRQAPGKGPEWVSVIYADGMRTAYADSVKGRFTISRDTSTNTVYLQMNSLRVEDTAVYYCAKGQVAGTFDQWGQGTLVTVSS, the assay gave -0.18, -0.14, -0.40, -0.60, -0.05, -0.07 (mean -0.24; controls 0 of 18).
For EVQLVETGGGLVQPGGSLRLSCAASGFDLEDYGISWVRQAPGKGPEWVSVIYADGSRTAYADSVKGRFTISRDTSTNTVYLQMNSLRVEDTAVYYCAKGNVAGTFDVWGQGTLVTVSS, the assay gave -1.28, ND, -1.32, ND, -2.07, 0.62 (mean -1.01; controls 0 of 18).
For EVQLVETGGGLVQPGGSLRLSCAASGFDLNEYGISWVRQAPGKGPEWVSVIYADGVRTVYADSVKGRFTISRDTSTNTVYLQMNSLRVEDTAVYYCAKGENAGTFDVWGQGTLVTVSS, the assay gave -0.08, -0.05, 0.68, 0.16, -0.25, 0.19 (mean 0.11; controls 0 of 18).
For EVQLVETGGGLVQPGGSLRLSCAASGFDLNEYGISWVRQAPGKGPEWVSVIYADGKRTAYSDAVKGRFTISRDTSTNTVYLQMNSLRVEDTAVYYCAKGNVAGTFDVWGQGTLVTVSS, the assay gave -0.50, -0.49, -0.57, -0.55, -0.49, -0.36 (mean -0.49; controls 0 of 18).
For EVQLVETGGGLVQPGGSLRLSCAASGFDLNEYGISWVRQAPGKGPEWVSVIYADGVRTAYVDSVKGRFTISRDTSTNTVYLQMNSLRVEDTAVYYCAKGEVAGTFDIWGQGTLVTVSS, the assay gave 1.47, 0.03, -0.24, -0.19, 0.48, 0.75 (mean 0.38; controls 1 of 18).
For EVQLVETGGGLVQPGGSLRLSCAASGFDLDEYGISWVRQAPGKGPEWVSVIYADGVRTFYADSVKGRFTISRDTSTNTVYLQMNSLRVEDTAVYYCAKGNVAGTFDLWGQGTLVTVSS, the assay gave -0.18, -0.69, -0.57, -0.57, -0.46, -0.05 (mean -0.42; controls 0 of 18).
For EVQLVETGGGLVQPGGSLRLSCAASGFDLNEYGISWVRQAPGKGPEWVSVIYADGMRTFYADSVKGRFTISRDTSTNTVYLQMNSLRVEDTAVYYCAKGTNAGTFDIWGQGTLVTVSS, the assay gave 0.18, 0.36, 0.10, 0.00, 0.00, 0.42 (mean 0.18; controls 0 of 18).

The opening 2 entries, copied out:

VH,log10 Kd (nM) by replicate,mean log10 Kd (nM),control signals
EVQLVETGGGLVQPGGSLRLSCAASGFDLNEYGISWVRQAPGKGPEWVSVIYADGSRTAYADKVKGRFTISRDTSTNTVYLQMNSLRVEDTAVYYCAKGEVAGTFDVWGQGTLVTVSS,"0.35, 1.32, 0.07, 0.05, 0.58, 0.42",0.46,0/18
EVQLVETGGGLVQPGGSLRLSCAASGFDLNEYGISWVRQAPGKGPEWVSVIYADGVRTAYADSVKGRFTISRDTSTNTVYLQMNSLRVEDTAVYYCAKGNQAGTFDTWGQGTLVTVSS,"0.39, -0.06, -0.58, -0.38, -0.20, 0.08",-0.12,0/18

A sequence measured in both rounds can read differently, since the two assays cover different ranges.
Background: pairings of all heavy chain designs with three empty control strains gave a value in 1% of cases (median 2.08, 5th percentile 0.84). Values in that range, when seen in few replicates, are hard to tell from nonspecific mating. For each scFv, signals with the empty controls are counted beside the result.
Of ten entries with the parent sequence, four were seen in most replicates (averages 0.34 to 2.37), three in one and three in none, so single entries are noisy.
The authors averaged sequences with at least three values out of six and counted those with two or fewer as poor binders.